{"source": "patent US20170304369A1", "about": "“METHODS OF DIFFERENTIATING STEM CELLS INTO LIVER CELL LINEAGES” (Agency for Science, Technology and Research, priority 2014, published 2017)", "tested_on": "hepatic progenitors", "assay": "Treatment of hepatic progenitors (days 13-18), hepatocyte-like cell, periportal versus perivenous gene expression", "format": "cell-based, human", "data": [{"smiles": "Cc1cnc(-c2cnc(NCCNc3ccc(C#N)cn3)nc2-c2ccc(Cl)cc2Cl)[nH]1", "note": "[CHIR99201, 6-[[2-[[4-(2,4-dichlorophenyl)-5-(5-methyl-1H-imidazol-2-yl)-2pyrimidinyl]amino]ethyl]amino]-3-pyridinecarbonitrile]", "values": [{"measurement": "expression of hepatic genes", "result": "vastly reduces"}]}]}
